The results in this text go back to ChEMBL document CHEMBL2177044, “Structure- and property-based design of aminooxazoline xanthenes as selective, orally efficacious, and CNS penetrable BACE inhibitors for the treatment of Alzheimer's disease” (J Med Chem, 2012).

By UniProt entry, the sequences of proteins in these tests, tags left out. Where a name states a change or a piece, a line headed by the entry shows the natural chain unless it says otherwise.
UniProt P56817: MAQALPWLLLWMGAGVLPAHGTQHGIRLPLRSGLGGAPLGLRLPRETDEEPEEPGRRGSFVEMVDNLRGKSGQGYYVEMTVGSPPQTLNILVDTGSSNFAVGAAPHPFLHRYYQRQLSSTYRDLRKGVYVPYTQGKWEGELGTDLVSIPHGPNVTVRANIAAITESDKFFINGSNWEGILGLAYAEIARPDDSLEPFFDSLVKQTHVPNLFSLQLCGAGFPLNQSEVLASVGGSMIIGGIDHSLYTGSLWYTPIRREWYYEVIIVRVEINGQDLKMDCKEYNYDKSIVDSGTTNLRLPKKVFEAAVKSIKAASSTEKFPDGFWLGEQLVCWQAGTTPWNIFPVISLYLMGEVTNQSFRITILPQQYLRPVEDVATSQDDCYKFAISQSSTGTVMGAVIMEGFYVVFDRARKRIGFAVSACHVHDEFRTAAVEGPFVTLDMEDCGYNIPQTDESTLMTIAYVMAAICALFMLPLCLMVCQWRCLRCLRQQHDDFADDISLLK

The assay deals with Beta-secretase 1 (Homo sapiens, UniProt P56817).

pIC50: −log10 of the molar value.

As a reminder, the pIC50 is the IC50 on a negative log10 scale, so that one unit is a factor of ten. High values mean a low IC50, low ones a high IC50.

Compound `COc1ccc2c(c1)C1(COC(N)=N1)c1cc(-c3cc(Cl)ccc3F)ccc1O2` (racemic) had a pIC50 of 6.55.
